Experimental properties from OPERA 2.9

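These are experimental values that the OPERA curators gathered from public databases to train and test their QSAR models. The files give a single number for a compound and property, which may rest on several reports. How each value was measured is not recorded, so precision varies. Where a salt, mixture or single isomer is drawn, the source does not say that exactly this form was tested. Some upstream entries may be estimates or bounds without being marked so.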

The melting point is given in degrees Celsius.
The boiling point refers to atmospheric pressure (760 mmHg), by the definition of the set.
The octanol-water partition coefficient is given as log10; larger values mean a more lipophilic compound.
Water solubility is log10 of mol/L, nominally at 25 °C; higher is more soluble.
Vapor pressures (log10 mmHg) refer to near room temperature, 15 to 30 °C; higher is more volatile.
Henry's law constant (air-water partitioning) is log10 of atm·m3/mol, nominally at 25 °C.
fu is the fraction unbound in human plasma, from 0 to 1.
Intrinsic clearance (human, µL/min per 10^6 hepatocytes): higher is faster turnover, and 0 stands for none detected.
Cells with "n/a" have no entry in this list.

OCC1COC(Cn2ccnc2)(c2ccc(Cl)cc2Cl)O1 (stereo not given) is reported with melting point 140.6 °C and log S -3.359 (log10 mol/L) and log VP -8.592 (log10 mmHg).
Cl.N=C1C=CC(=C(c2ccc(N)cc2)c2ccc(N)cc2)C=C1 [C.i. basic red 9 monohydrochloride] is reported with fraction unbound 0.235 and Clint 3.23 µL/min/10^6 cells.
Cc1nn(-c2ccccc2)c(=O)[c-]1/N=N/c1cc(Cl)c(S(N)(=O)=O)cc1[O-].Cc1nn(-c2ccccc2)c(=O)[c-]1/N=N/c1cc(Cl)c(S(N)(=O)=O)cc1[O-].[Cr+3].[Na+] is reported with log Kow 1.33 and log S -2.692 (log10 mol/L) and log VP -5.973 (log10 mmHg).
O=C(O)[C@H]1/C(=C/CO)O[C@@H]2CC(=O)N21 [Clavulanic acid] is reported with log Kow -1.5 and log S 0.179 (log10 mol/L).
CCO[Si](CCC(F)(F)C(F)(F)C(F)(F)C(F)(F)C(F)(F)C(F)(F)F)(OCC)OCC [Triethoxy((perfluorohexyl)ethyl)silane] is reported with log S -5.407 (log10 mol/L) and log VP 0.701 (log10 mmHg).
COC(=O)[C@H]1[C@H]2C[C@@H]3c4[nH]c5ccccc5c4CCN3C[C@H]2C[C@@H](OC(=O)c2cc(OC)c(OC)c(OC)c2)[C@@H]1OC [Deserpidine] is reported with log Kow 3.3 and log S -4.717 (log10 mol/L).
O=C(O)c1cc(Nc2ccccc2)c(C(=O)O)cc1Nc1ccccc1 [2,5-Dianilinoterephthalic acid] is reported with log Kow 2.02 and log S -4.986 (log10 mol/L).
COC(C)(C)CCOC(C)=O [1-Butanol, 3-methoxy-3-methyl-, acetate] is reported with log Kow 1.6 and log VP 0.287 (log10 mmHg).
CCCCCCCCC=COCC [1-Decene, 1-ethoxy-] is reported with boiling point 220.8 °C and log S -7.087 (log10 mol/L) and log VP -1.239 (log10 mmHg).
C=C(C)C(=O)OCCNC(=O)n1nc(C)cc1C is reported with log Kow 2.5 and log S -2.443 (log10 mol/L).
O=C(Nc1ccc(F)cc1)c1cccc(Oc2cccc(C(F)(F)F)c2)n1 [Picolinafen] is reported with melting point 107 °C and log S -6.9 (log10 mol/L) and log VP -8.893 (log10 mmHg) and Henry's law constant -7.802 (log10 atm·m3/mol).
Cc1ccc(N)c(S(=O)(=O)O)c1 [2-Amino-5-methylbenzenesulfonic acid] is reported with log Kow -0.67 and log S -1.131 (log10 mol/L).
CC(C)(C)N(Sc1nc2ccccc2s1)Sc1nc2ccccc2s1 is reported with melting point 137.5 °C and log Kow 6.7 and log S -8.363 (log10 mol/L) and log VP -5.401 (log10 mmHg).
C=C(C)C(=O)OCCN1CCOC1 [2-(3-Oxazolidinyl)ethyl methacrylate] is reported with log Kow 0.7 and log VP -1.824 (log10 mmHg).
CCCC(=O)OCc1ccccc1 [Benzyl butyrate] is reported with melting point -14.3 °C and log VP -1.312 (log10 mmHg).
CN1CCNCC1 [1-Methylpiperazine] is reported with log Kow -0.57 and log VP 0.772 (log10 mmHg).
O=c1c2ccc3c(=O)n4c5ccccc5nc4c4ccc(c2c34)c2nc3ccccc3n12 [Algol Bordeaux RR] is reported with log Kow 0.165 and log S -5.633 (log10 mol/L).
CC(CN)CCCCCCN (stereo not given) [1,8-Octanediamine, 2-methyl-] is reported with boiling point 244 °C and log Kow 2.
COC(=O)CCCCCCCCCCCCCCCCC(=O)OC [Dimethyl octadecanedioate] is reported with boiling point 391 °C and log S -8.745 (log10 mol/L) and log VP -5.046 (log10 mmHg).
CN(C)C=C1OC(=O)C(C#N)=C1c1ccccc1 [Difunone] is reported with log VP -5.801 (log10 mmHg) and Henry's law constant -10.5 (log10 atm·m3/mol).
O=C1CC/C=C\CCCCCCCCCC1 [(4Z)-Cyclopentadec-4-en-1-one] is reported with log Kow 5.154 and log S -4.883 (log10 mol/L) and log VP -2.929 (log10 mmHg).
CCCCCCCCCCCC(=O)N(C)CC(=O)OC(C)C [Isopropyl lauroyl sarcosinate] is reported with melting point -10.1 °C and log Kow 5.8 and log S -5.593 (log10 mol/L) and log VP -5.979 (log10 mmHg).
C=CCn1c(=O)n(CC=C)c(=O)n(CC=C)c1=O [Triallyl isocyanurate] is reported with log Kow 1.64 and log VP -5.894 (log10 mmHg).
C=C(CCCCCC)CCCCCCCC [7-Methylenepentadecane] is reported with melting point -36 °C and log VP -1.286 (log10 mmHg).
C[C@H]1C[C@@H]2[C@H]([C@@H](O)C[C@@]3(C)[C@H]2CC[C@]3(O)C(=O)CO)[C@@]2(C)C=CC(=O)C=C12 [Methylprednisolone] is reported with log Kow 1.5 and Clint 7.051 µL/min/10^6 cells.

A selection of 4 entries from above:

SMILES	name	melting point (°C)	boiling point (°C)	log Kow	log S (log10 mol/L)	log VP (log10 mmHg)	Henry's law constant (log10 atm·m3/mol)	fraction unbound	Clint (µL/min/10^6 cells)
O=c1c2ccc3c(=O)n4c5ccccc5nc4c4ccc(c2c34)c2nc3ccccc3n12	Algol Bordeaux RR	n/a	n/a	0.165	-5.633	n/a	n/a	n/a	n/a
OCC1COC(Cn2ccnc2)(c2ccc(Cl)cc2Cl)O1 (stereo not given)	n/a	140.6	n/a	n/a	-3.359	-8.592	n/a	n/a	n/a
C[C@H]1C[C@@H]2[C@H]([C@@H](O)C[C@@]3(C)[C@H]2CC[C@]3(O)C(=O)CO)[C@@]2(C)C=CC(=O)C=C12	Methylprednisolone	n/a	n/a	1.5	n/a	n/a	n/a	n/a	7.051
CCCCCCCCC=COCC	1-Decene, 1-ethoxy-	n/a	220.8	n/a	-7.087	-1.239	n/a	n/a	n/a

Values as listed in the OPERA 2.9 repository of K. Mansouri.